Experimental data reported in patent US20240270809A1, “ORAL GLP RECEPTOR AGONISTS” (priority 2020, published 2024).

By UniProt entry, the sequences of proteins in these tests, tags left out. Residues count along the entry.
UniProt P43220, 24-463: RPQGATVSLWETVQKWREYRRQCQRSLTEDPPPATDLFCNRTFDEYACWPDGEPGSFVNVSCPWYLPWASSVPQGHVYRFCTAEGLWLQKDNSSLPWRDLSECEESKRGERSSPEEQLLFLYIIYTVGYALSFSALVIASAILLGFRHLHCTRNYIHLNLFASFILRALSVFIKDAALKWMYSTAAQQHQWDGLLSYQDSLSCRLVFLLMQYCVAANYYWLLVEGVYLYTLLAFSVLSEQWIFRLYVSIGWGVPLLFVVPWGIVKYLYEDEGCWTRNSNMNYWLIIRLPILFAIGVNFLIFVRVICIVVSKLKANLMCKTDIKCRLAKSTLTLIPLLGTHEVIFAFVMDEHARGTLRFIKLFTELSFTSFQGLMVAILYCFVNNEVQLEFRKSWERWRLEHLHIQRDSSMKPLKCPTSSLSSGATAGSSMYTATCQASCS

How the values were obtained:
[1] = molecular target: T1, human GLP2 receptor (Homo sapiens, UniProt O95838); test: cAMP accumulation assay, functional agonism of human GLP2 receptor; assay type: cell-based; conditions: for Emax: HEK293, read-out: Human GLP-2R agonist cAMP Emax
T1 construct: expressed in transfected cells; host or cells: HEK cells, BacMam virus transduction
T1 sequence (O95838 1-553): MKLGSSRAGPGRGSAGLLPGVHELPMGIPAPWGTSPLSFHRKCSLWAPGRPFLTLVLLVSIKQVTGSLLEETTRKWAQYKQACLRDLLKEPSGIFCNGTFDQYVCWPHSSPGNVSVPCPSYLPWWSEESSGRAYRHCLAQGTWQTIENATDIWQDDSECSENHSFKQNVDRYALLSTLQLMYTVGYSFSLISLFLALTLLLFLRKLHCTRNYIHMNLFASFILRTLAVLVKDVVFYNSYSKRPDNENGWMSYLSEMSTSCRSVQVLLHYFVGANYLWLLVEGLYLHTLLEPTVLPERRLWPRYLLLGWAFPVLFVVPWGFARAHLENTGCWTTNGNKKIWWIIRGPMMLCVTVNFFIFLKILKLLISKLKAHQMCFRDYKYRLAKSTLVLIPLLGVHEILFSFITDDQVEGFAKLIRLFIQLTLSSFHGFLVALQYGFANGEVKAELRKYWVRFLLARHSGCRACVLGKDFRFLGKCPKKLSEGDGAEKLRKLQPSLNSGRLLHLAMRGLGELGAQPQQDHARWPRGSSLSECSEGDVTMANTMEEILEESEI
Description: (§1) CAMP production upon agonist stimulation of human GLP2 or GLP1 receptor was assessed utilizing HiRange cAMP kit (Cisbio). In brief, HEK cells were infected with either human GLP2 or GLP1 receptor BacMam virus for 24 hours and frozen for later use in the assay. […] Cells were prepared in the assay buffer (HBSS (Lonza) supplemented with 0.5 mM IBMX (Tocris)). After 45 min incubation at 37° C., the reaction was stopped by addition of the HTRF detection reagents in the lysis buffer provided in the kit.

[2] = molecular target: T2, human GLP1 receptor (Homo sapiens, UniProt P43220); test: cAMP accumulation assay, functional agonism of human GLP1 receptor; assay type: cell-based; conditions: for Emax: HEK293, read-out: Human GLP-1R agonist cAMP Emax
T2 construct: expressed in transfected cells; host or cells: HEK cells, BacMam virus transduction
Description: as §1

[3] = Stability of peptides in Fasted-State Simulated Intestinal Fluid (FaSSIF); assay type: in vitro ADME; conditions: FaSSIF with 10 mg/ml pancreatin; t=30 mins, 37° C., pH 6.5, 10 mg/ml pancreatin
[4] = Stability of peptides in Fasted-State Simulated Gastric Fluid (FaSSGF); assay type: in vitro ADME; conditions: FaSSGF with 0.1 mg/ml pepsin; t=30 mins, 37° C., pH 1.6, 0.1 mg/ml pepsin
[5] = Stability of peptides in rat intestinal fluid (ratIF); conditions: Sprague Dawley, undiluted rat small intestinal fluid (ratIF)

SMILES: CCCC[C@H](NC(=O)[C@H](CCC(=O)O)NC(=O)[C@@H]1CC(=O)NCCCC[C@H](NC(=O)[C@H](CC(=O)O)NC(=O)C(C)(C)NC(=O)[C@@H](N)Cc2c[nH]cn2)C(=O)N[C@@H](CO)C(=O)N[C@@H](Cc2ccccc2)C(=O)N[C@@H](CO)C(=O)N1)C(=O)N[C@H](Cc1ccccc1)C(=O)N[C@H]1CCC(=O)NCCCC[C@@H](C(=O)N[C@@H](CCCCN)C(=O)N[C@@H](C)C(=O)N[C@@H](C)C(=O)NC(C)(C)C(=O)N[C@@H](CC(=O)O)C(=O)N[C@@H](Cc2ccccc2)C(=O)N[C@H](C(=O)N[C@H]2CCC(=O)NCCCC[C@@H](C(=O)N[C@H]3CCC(=O)NCCCC[C@@H](C(N)=O)NC(=O)[C@H]([C@@H](C)O)NC(=O)[C@H]([C@@H](C)CC)NC(=O)[C@H](CCCCN)NC3=O)NC(=O)[C@H]([C@@H](C)CC)NC(=O)[C@H](CC(C)C)NC(=O)[C@H](Cc3c[nH]c4ccccc34)NC2=O)[C@@H](C)CC)NC(=O)[C@H](CC(=O)O)NC(=O)[C@H](CC(C)C)NC(=O)[C@H]([C@@H](C)CC)NC1=O [Example 39]
- EC50 [1]: 0.2 nM
- Emax [1]: 105%
- EC50 [2]: 0.398 nM
- Emax [2]: 92.6%
- remaining at 0.5 h [3]: 100%
- remaining at 0.5 h [4]: 100%
- remaining at 0.5 h [5]: 12.7%

SMILES: CCCC[C@H](NC(=O)[C@H](CCC(=O)O)NC(=O)[C@@H]1CC(=O)NCCCC[C@H](NC(=O)[C@H](Cc2nn[nH]n2)NC(=O)C(C)(C)C(=O)NCCc2c[nH]cn2)C(=O)N[C@@H](CO)C(=O)N[C@@H](Cc2ccccc2)C(=O)N[C@@H](CO)C(=O)N1)C(=O)N[C@H](Cc1ccccc1)C(=O)N[C@H]1CCC(=O)NCCCC[C@@H](C(=O)N[C@@H](CCCCN)C(=O)N[C@@H](C)C(=O)N[C@@H](C)C(=O)NC(C)(C)C(=O)N[C@@H](CC(=O)O)C(=O)N[C@@H](Cc2ccccc2)C(=O)N[C@H](C(=O)N[C@H]2CCC(=O)NCCCC[C@@H](C(=O)N[C@H]3CCC(=O)NCCCC[C@@H](C(N)=O)NC(=O)[C@H]([C@@H](C)O)NC(=O)[C@H]([C@@H](C)CC)NC(=O)[C@H](CCCCN)NC3=O)NC(=O)[C@H]([C@@H](C)CC)NC(=O)[C@H](CC(C)C)NC(=O)[C@H](Cc3c[nH]c4ccccc34)NC2=O)[C@@H](C)CC)NC(=O)[C@H](CC(=O)O)NC(=O)[C@H](CC(C)C)NC(=O)[C@H]([C@@H](C)CC)NC1=O [Example 41]
- EC50 [1]: 0.794 nM
- Emax [1]: 97.6%
- EC50 [2]: 0.251 nM
- Emax [2]: 95.3%
